Reference: paper PMC7718273, “Discovery of a novel fibroblast activation protein (FAP) inhibitor, BR103354, with anti-diabetic and anti-steatotic effects” (Scientific Reports, 2020)

Key:
ob/ob mice = assay: Chronic study using ob/ob mice (4 weeks); details: after 4 weeks of treatment
FAP = system: T1, FAP; assay: Chronic study using ob/ob mice: FAP activity at week 4; assay type: in vivo, mouse; details: 20 and 50 mg/kg, after 4 weeks of treatment
T1 construct: from tissue; host or cells: mouse serum/plasma (ob/ob and C57BL/6J mice)
From the text: Liver tissue was then collected. […] (assessed by KNOTUS).

PREP = biological target: T2, PREP (Homo sapiens, UniProt P48147); assay: PREP activity, fluorometric assay with AMC substrate; assay type: biochemical; details: IC50(PREP)/IC50(FAP)
T2 construct: purchased R&D Systems 4308-SE
T2 sequence (P48147 1-710): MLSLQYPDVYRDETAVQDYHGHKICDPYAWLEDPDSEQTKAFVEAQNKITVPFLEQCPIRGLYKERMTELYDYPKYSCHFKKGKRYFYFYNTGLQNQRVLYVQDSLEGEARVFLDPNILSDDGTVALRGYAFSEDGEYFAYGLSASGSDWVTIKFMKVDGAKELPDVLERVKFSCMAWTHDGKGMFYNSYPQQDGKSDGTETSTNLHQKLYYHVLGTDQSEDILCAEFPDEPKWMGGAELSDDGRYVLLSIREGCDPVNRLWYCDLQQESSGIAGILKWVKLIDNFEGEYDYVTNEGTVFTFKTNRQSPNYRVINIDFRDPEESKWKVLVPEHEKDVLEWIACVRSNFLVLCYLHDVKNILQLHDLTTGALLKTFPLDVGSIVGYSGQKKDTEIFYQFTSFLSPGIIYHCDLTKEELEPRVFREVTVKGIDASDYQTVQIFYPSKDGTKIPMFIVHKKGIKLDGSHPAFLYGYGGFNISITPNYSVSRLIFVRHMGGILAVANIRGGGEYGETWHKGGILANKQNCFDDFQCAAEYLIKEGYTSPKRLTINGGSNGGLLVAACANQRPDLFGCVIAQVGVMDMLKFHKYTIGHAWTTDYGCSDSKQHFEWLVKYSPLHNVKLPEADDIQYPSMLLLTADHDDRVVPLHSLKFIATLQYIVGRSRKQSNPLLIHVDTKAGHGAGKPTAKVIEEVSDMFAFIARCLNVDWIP
Procedure: Recombinant human PREP (hPREP) (catalog no. 4308-SE), hDPP2/7 (catalog no. 3438-SE), hDPP9 (catalog no. 5419-SE), hFAP (catalog no. 3715-SE), and hDPP4 (catalog no. 9168-SE) proteins were from R&D Systems (Minneapolis, MN). Human FGF21 (catalog no. CRF159C) was from Cell Science (Newburyport, MA).
FAP enzyme activities were assayed in 20 mM Tris/HCl, 0.1 M NaCl, 1 mM EDTA (pH 8.0) in the presence of 40 μM Suc-Gly-Pro-Leu-Gly-Pro-AMC (#I-1350.0100, BACHEM, Bubendorf, Switzerland) and hFAP in a total volume of 100 µL. The reaction mixture was incubated in the presence of various concentrations of BR103354 for 60 min at 37 °C, and the fluorescence of AMC released by FAP-induced cleavage was then determined at an emission wavelength of 450 nm with FlexStation 3 (Molecular Devices). The inhibitor concentrations ranged from 100 μM to 0.03 nM, and its IC50 values were computed with commercially available curve-fitting programs such as the SigmaPlot. Other protease activities were determined in a similar manner.

N#Cc1ccc(Cc2nc(C(=O)NCC(=O)N3CC(F)(F)C[C@H]3C#N)cs2)cc1 [BR103354, (S)-N-(2-(2-cyano-4,4-difluoropyrrolidin-1-yl)-2-oxoethyl)-2-(4-cyanobenzyl)thiazole-4-carboxamide]
insulin resistance (HOMA-IR) (ob/ob mice): ameliorated | FAP activity inhibited, relative to vehicle group (FAP): ≥ 80% | SI index (PREP/FAP) (PREP): 27.6
